Laboratory results taken from patent US20040063764A1, “Halogen compounds having thrombopoietin receptor agonism” (priority 2001, published 2004).
pEC50: −log10 of the molar value.

Protein sequences, listed by entry. Tags and fused reporters are not part of them. Residues count along the entry.
UniProt P40238, 26-635 limits assumed: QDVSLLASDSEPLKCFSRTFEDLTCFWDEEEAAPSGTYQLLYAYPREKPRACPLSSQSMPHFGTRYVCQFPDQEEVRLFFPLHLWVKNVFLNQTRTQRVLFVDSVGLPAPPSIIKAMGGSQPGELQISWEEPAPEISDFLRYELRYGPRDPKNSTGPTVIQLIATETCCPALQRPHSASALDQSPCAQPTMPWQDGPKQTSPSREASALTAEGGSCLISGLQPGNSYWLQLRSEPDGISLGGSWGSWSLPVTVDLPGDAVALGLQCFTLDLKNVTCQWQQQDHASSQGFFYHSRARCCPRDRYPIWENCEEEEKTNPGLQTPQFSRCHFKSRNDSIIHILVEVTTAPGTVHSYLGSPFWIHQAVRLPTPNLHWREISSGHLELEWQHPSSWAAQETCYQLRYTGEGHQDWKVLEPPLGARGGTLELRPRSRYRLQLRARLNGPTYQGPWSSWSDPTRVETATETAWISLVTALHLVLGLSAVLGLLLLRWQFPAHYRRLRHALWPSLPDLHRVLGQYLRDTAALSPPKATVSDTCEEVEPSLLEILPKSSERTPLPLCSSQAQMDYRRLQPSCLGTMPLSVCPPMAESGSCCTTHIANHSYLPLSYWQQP

Target: human TPO receptor (Homo sapiens, UniProt P40238)
Assay: Thrombopoietic activity: proliferation of TPO dependent BaF/hTPOR cell line (WST-1)
Settings: read-out: ED50; BaF/hTPOR cells, 20 hours incubation then WST-1 for 4 hours, absorbance at 450 nm; ED50 = half concentration of the concentration showing the maximum thrombopoietic activity
From the text: The TPO dependent BaF/hTPOR cell line which was established by introducing human TPO receptor into BaF-B03 cells according to Collins et al (J. Cell. Physiol., 137:293-298 (1988)) was used to test the thrombopoietic activity of the present compound. The DNA sequences and encoded peptide sequences for human TPO receptor have been described by Vigon et al (Proc. Natl. Acad. Sci. USA, 89:5640-5644 (1992)). TPO dose not have any ability to support proliferation of interlukin-3 dependent parental cell line BaF-B03. BAF/hTPOR cells were maintained in RPMI medium and 10% WEHI-3 conditioned medium. These cells were washed once with PBS and resuspended in RPMI medium without WHEHI-3 conditioned medium and seeded into each well of 96-well microtiter plates at a density of 5×10^4 cells per well in the presence of the present compound or TPO. After incubation at 37° C. for 20 hours in the 5% CO2 incubator, WST-1 reagent (Takara Biomedicals, Japan) was added to each wells and the cells were further incubated for 4 hours. The absorbance at 450 nm was measured. Table 7 exemplifies the ED50 for tested compounds of the present invention, wherein the ED50 is the half concentration of the concentration showing the maximum thrombopoietic activity.

Compound | pEC50
O=C1NC(=O)/C(=C/c2ccc(C(=O)Nc3nc(-c4cccc(C(F)(F)F)c4F)cs3)cc2)S1 | 7.15
O=C1NC(=O)/C(=C/c2ccc(C(=O)Nc3nc(-c4ccc(F)cc4F)cs3)cc2)S1 | 7.09
